Literature values in patent US5593994A, “Prostaglandin synthase inhibitors” (The DuPont Merck Pharmaceutical Company, priority 1994, dated 1997).

Assays:
[1] = tested on: both isoenzymes (prostaglandin G/H synthase, Cox 1 and Cox 2); conditions: cited from earlier work
Cox-2 = conditions: cited from earlier work

CS(=O)(=O)c1ccc(-c2cc(Br)sc2-c2ccc(F)cc2)cc1 [DuP 697]
mode of inhibition [1]: competitive toward both isoenzymes
time-dependence of inhibition (Cox-2; Cox-2, longer exposure): selective time-dependence against Cox-2
tightness / reversibility of binding inhibition (Cox-2; reversed only following enzyme denaturation and organic extraction): extremely tight binding inhibition
